The chains behind the UniProt entries cited, without tags or fusion partners.
ATP-dependent Clp protease proteolytic subunit (Bacillus subtilis (strain 168)), P80244, UniProt P80244, whole entry, looked up: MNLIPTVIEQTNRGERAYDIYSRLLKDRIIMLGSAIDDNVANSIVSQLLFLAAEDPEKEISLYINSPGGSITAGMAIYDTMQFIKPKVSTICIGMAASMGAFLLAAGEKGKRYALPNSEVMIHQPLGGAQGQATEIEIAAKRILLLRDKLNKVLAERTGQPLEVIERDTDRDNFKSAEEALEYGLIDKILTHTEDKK

# Compounds with a hit are over-represented: about 2.5% of the library has one in this group of screens.
# miR-21 reporter – miR-21 reporter, rising signal | HeLa miR-21 FLuc reporter, luciferase, 48 h | Potency, µM (top dose mostly 38.3 µM) | 340,000 tested, under 10 active | AID 2288; active = well fitted rising curve with a large enough effect; inconclusive = small, poorly fitted or top-dose-only effect; inactive = no such curve, though single readings can be large or run the other way;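 further: miR-21 action dims this reporter so a rising signal means less miR-21 action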
#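 HeLa miR-21-FLuc reporter line, endogenous miR-21; 2000 cells/well in DMEM/10% FBS; compound titration up to ~40uM final, 48 h, 37 degree Celsius; luciferase detection reagent, 15 min lysis, CCD luminescence.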
# Apoferritin bind – candidate novel general anesthetic via apoferritin binding. AID 485281. Potency, µM (series often up to 77.5 µM), hits mostly inhibitors. hit rate 0.074% among 350,000. apoferritin/1-aminoanthracene competitive binding, fluorescence; also: nearly all actives have a fitted effect of over 20% in size
#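 Concentration-response curves derived by four-parameter Hill fitting of normalized fluorescence, where compounds displaced 1-AMA from 10 uM horse apoferritin following a brief 10 min room-temperature incubation; propofol titration acted as positive control.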
# TrxR1 substrate – substrates of rat thioredoxin reductase 1; O89049; purified TrxR1 substrate turnover, NADPH consumption readout; Potency, µM (titrated, usually from 114 µM); hit rate 0.01% among 390,000; AID 588456; also: nearly all actives have a fitted effect of over 50% in size
#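 Rat TrxR1, dispensed at 90 nM, was prereduced with 400 uM NADPH (final) for 5 min at ~22 deg C, then incubated with compound 15 min before 400 uM selenite. A first-read NADPH fluorescence drop versus no-compound background flagged substrates.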
# ClpP mod – qHTS Assay for Activators of ClpP | ATP-dependent Clp protease proteolytic subunit (Bacillus subtilis (strain 168)), P80244 | purified B. subtilis ClpP, FRET peptide cleavage, 20 min | Potency, µM (doses to about 57.5 µM) | hit rate 1.9% among 340,000; active = well fitted falling curve with a large enough effect; inconclusive = small, poorly fitted or top-dose-only effect; inactive = no such curve, though single readings can be large or run the other way; also: the source files actives as falling curves though it sought activators and does not explain the sign; nearly all actives have a fitted effect of over 65% in size
#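 FRET quenching reversal measured ClpP activation: 10 microg/mL B. subtilis ClpP at pH 8 with the FRET-FV decapeptide, read at 430 nm after 320 nm excitation. The 20-min minus 0-min signal was scaled between DMSO/no-enzyme wells and ADEP (5.8 microM final).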
# rTrxR1 inhibitor – inhibitors of rat thioredoxin reductase 1; O89049; recombinant rTrxR1, NADPH fluorescence consumption, selenite substrate; Potency, µM (series often up to 114 µM), hits mostly inhibitors; hit rate 1% among 390,000; also: nearly all actives have a fitted effect of over 65% in size
#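 Rat TrxR1 (90 nM in the dispensed reagent) was pre-reduced with 400 uM NADPH for 5 min at room temperature, then incubated with compound for 15 min. After 400 uM selenite was added, NADPH fluorescence (Ex 340/Em 450 nm) was followed for 8 min.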
# Hits are given with their value; – = inactive; ? = inconclusive; · = not tested or not shown; [ ] = another dose, or the depositor's remark. Unless noted, calls follow the shape of the dose curve; as a rule, active = well fitted curve in the direction sought with a large enough effect; inconclusive = small, poorly fitted or top-dose-only effect, or another doubt; inactive = no such curve, though single readings can be large; an effect the other way counts as inactive or inconclusive.
SMILES,miR-21 reporter,Apoferritin bind,TrxR1 substrate,ClpP mod,rTrxR1 inhibitor
CCOC(=O)c1cc(-c2ccc(C)cc2)nc2nc(SC)[nH]c(=O)c12,–,–,–,14µM,–
Cc1c(C(=O)OCC(=O)NCCN2C(=O)CSC2=O)oc2c1ccc1ccccc12,–,–,–,32µM,–
Cn1c(=O)c2c(SCC(=O)Nc3ccccc3C(F)(F)F)nc(C3CCCC3)nc2n(C)c1=O,–,–,–,–,–
O=C(COC(=O)C12CC3CC(CC(O)(C3)C1)C2)NCCc1ccc(Cl)cc1,–,–,–,–,–
O=C(CC1(c2ccc(Cl)cc2)C2CC3CC(C2)CC1C3)NCCO (configuration not stated),–,–,–,13µM,–
CSc1ccc(CCNC(=O)c2cc3cc(S(=O)(=O)N4CCCCC4)ccc3n2C)cc1,–,–,–,22µM,–
COc1ccc(-c2nn3c(-c4cc(-c5ccccc5)n[nH]4)nnc3s2)cc1,·,·,–[0.0914 µM],–,–[0.0914 µM]
CCOc1ccc2[nH]c(C)cc(=O)c2c1,–,–,–,–,–
COc1ccc2[nH]c(C)c(CN3CCC(C)CC3)c(=O)c2c1,–,–,–,10µM,–
CCOc1ccc2[nH]c(C)c(CN(C)C)c(=O)c2c1,–,–,–,16µM,–
CCOc1ccc2[nH]c(C)c(CN3CCCCC3)c(=O)c2c1,–,–,–,–,–
O=C(Nc1cccc(C(=O)OCc2cc(=O)n3c4c(sc3n2)CCCC4)c1)c1cccc(F)c1,–,–,–,–,–
COc1ccc([C@@H]2CC(=O)c3c(O)cc(O[C@@H]4O[C@H](CO)[C@@H](O)[C@H](O)[C@H]4O[C@@H]4O[C@@H](C)[C@H](O)[C@@H](O)[C@H]4O)cc3O2)cc1,·,–,·,·,·
Cc1ccn2c(/C=N/OCc3cccc(F)c3)c(-c3ccc(Cl)cc3)nc2c1,–,–,–,25µM,–
Cc1ccn2c(/C=N/OCc3ccc(F)cc3)c(-c3ccc(Cl)cc3)nc2c1,–,–,–,?,–
O=[N+]([O-])c1ccccc1-c1ccc(C(=S)N2CCCC2)o1,–,56µM,–,·,–
FC(F)(F)c1cc(-c2ccco2)nc(-n2nc(C(F)(F)F)cc2C2CC2)n1,–,–,–,28µM,–
CN1CCN(c2nc(-c3ccco3)cc(C(F)(F)F)n2)CC1,–,–,–,–,–
FC(F)(F)c1cc(-c2ccco2)nc(-n2nnc3ccccc32)n1,–,–,–,28µM,–
O=[N+]([O-])c1cn(-c2nc(-c3ccco3)cc(C(F)(F)F)n2)cn1,–,–,–,–,–
CCCCN(C)C(=O)C1CCCN(c2ncnc3onc(-c4ccc(F)cc4)c23)C1 (configuration not stated),–,–,–,–,–
CCOC(=O)C1(Cc2ccccc2)NC(c2ccccc2F)C2C(=O)N(CC)C(=O)C21 (configuration not stated),–,–,–,–,–
CCOC(=O)C1(C)NC(c2ccccc2F)C2C(=O)N(CC)C(=O)C21 (configuration not stated),–,–,–,28µM,–
C=C(C)Cn1c(SCC(=O)Nc2cc(C)ccc2C)nc2sc3c(c2c1=O)CCCC3,–,–,–,–,–
CCC(Oc1ccc(F)cc1)C(=O)Nc1nc(-c2ccc(F)cc2)ns1 (configuration not stated),?,–,–,–,–
SMILES,miR-21 reporter,Apoferritin bind,TrxR1 substrate,ClpP mod,rTrxR1 inhibitor
Cc1nc2c(c(=O)c3ccccc3n2C)c(=O)n1-c1ccc(F)cc1,–,–,–,–,–
CC(C)c1nc2c(c(=O)c3ccccc3n2C)c(=O)n1-c1ccc(F)cc1,–,–,–,28µM,–
CC(=O)NS(=O)(=O)c1ccc(NC(=O)c2cc(-c3cccs3)nc3ccccc23)cc1,–,–,–,?,–
CCN(CC)S(=O)(=O)c1ccc(NC(=O)c2cc(-c3cccs3)nc3ccccc23)cc1,–,–,–,28µM,–
NS(=O)(=O)c1ccc(NC(=O)c2cc(-c3cccs3)nc3ccccc23)cc1,–,–,–,?,–
COc1cccc(C(=O)COC(=O)c2cc(-c3cccs3)nc3ccccc23)c1,–,–,–,–,–
CN(C)S(=O)(=O)c1ccc(NC(=O)c2cc(-c3cccs3)nc3ccccc23)cc1,–,–,–,16µM,–
COc1cccc(CN(C)C(=O)c2cc(-c3cccs3)nc3ccccc23)c1,–,–,–,32µM,–
CCOC(=O)c1ccccc1NC(=O)Cn1c2ncccc2c(=O)n1-c1ccccc1,–,–,–,11µM,–
CCc1ccccc1NC(=O)Cn1c2ncccc2c(=O)n1-c1ccccc1,–,–,–,–,–
COc1ccc(CCNC(=O)CCn2c(=O)c3ccccc3n(Cc3ccccc3C)c2=O)cc1OC,–,–,–,–,–
N#Cc1ncc(-c2ccc3c(c2)OCCOCCOCCOCCOCCO3)nc1C#N,?,–,–,32µM,–
O=C(Nc1cccc(F)c1)[C@H](CSCc1ccccc1)N1Cc2ccccc2C1=O,–,–,–,–,–
CCOC(=O)CCC(NC(=O)c1cncc(O)c1)C(=O)OCC (configuration not stated),–,–,–,28µM,–
CCc1ccc2oc(C(=O)Nc3nc(-c4ccccc4)ns3)c(C)c2c1,–,–,–,25µM,–
CCc1ccc2oc(C(=O)NCc3ccncc3)c(C)c2c1,–,–,–,28µM,–
COc1ccc(NC(=O)CC2C(=O)N(c3cccc(OC)c3)C(=O)N2CCC2=CCCCC2)cc1 (configuration not stated),–,–,–,–,–
Nc1nc(N)c2snnc2n1,·,·,–,–,–
CCN1CCN(c2oc(/C=C/c3cc(OC)c(OC)c(OC)c3)nc2C#N)CC1,–,–,–,–,–
Cc1cccc(NC(=O)C2CCC(CNS(=O)(=O)c3csc(C(N)=O)c3)CC2)c1C (configuration not stated),–,–,–,–,–
COC(=O)C1=C(C(=O)OC)N2C=CC=CC2(C)C(C(=O)OC)=C1C(=O)OC (configuration not stated),–,–,–,2.8µM,–
CC(NC(=O)c1ccccc1NS(=O)(=O)c1ccc(CCC(=O)O)cc1)c1ccccc1 (configuration not stated),–,–,–,28µM,–
COCCNC(=O)CCc1c(C)n(C)c2cc(-c3cc(OC)c(OC)c(OC)c3)nn2c1=O,–,–,–,–,–
CCOC(=O)c1sc2nc(N3CCOCC3)c3c(c2c1N)CCCC3,–,–,–,32µM,–
CCOC(=O)c1sc2nc(N3CCOCC3)c3c(c2c1N)CC(C(C)C)OC3 (configuration not stated),–,–,–,–,–
COC(=O)c1sc2nc(N3CCCCC3)c3c(c2c1N)CCCC3,–,–,–,10µM,–
